Results reported in patent US11312939B2, “Constructs for chimeric antigen receptors” (Carisma Therapeutics Inc., priority 2020, dated 2022).

Experiments:
[1] = tested on: Human macrophages electroporated with HER2 CAR mRNA; test: Cytokine treatment of HER2 CAR mRNA macrophages: viability, CAR expression, M1/M2 markers by flow cytometry; type: cell-based
Description: (§1) Human macrophages were electroporated with HER2 CAR mRNA comprising m6AGCap1 and PsU modifications. Cells were cultured with cytokines that induce an M1 phenotype such as IFN-alpha, IFN-beta, IFN-gamma, IFN-gamma plus lipopolysaccharide (LPS), TNF-alpha, IL-6 or a STING ligand (STING-L) for up to 48 hours and then cytokines were washed off and fresh media was added. CAR expression and M1 marker expression were measured on days 2 and 7 after transfection. Fluorescent labeled HER2+ breast cancer cells (CRL2351) were co-cultured with HER2 CAR macrophages two days after the macrophages were transfected. Cancer cell growth was monitored via its fluorescence on an Incucyte® live imaging microscope every four hours. The Effector (CAR macrophage) to Target (cancer cell) ratio was 5:1.
(§2) Five different mRNA modifications were also tested to determine if interferon treatment differentially affected macrophages transfected with mRNA comprising different modifications. Human macrophages were electroporated with HER2 CAR mRNA comprising different mRNA modifications. CAR expression and M1 markers were detected by Flow Cytometry (Attune) on day four after electroporation. Day 4 CAR macrophage cells were then co-cultured with a Nuc-Light labeled, HER2+ breast cancer cell line (CRL2351) at an Effector (CAR macrophage) to Target (cancer cell) ratio of 5:1. Cancer cell growth was monitored via its fluorescence on an Incucyte® live imaging microscope every four hours.
To further evaluate the impact of IFN-β on CAR persistence, human macrophages electroporated with m6AGCap1/PsU mRNA encoding a HER2 CAR were evaluated on day 2 and day 7.
In order to validate the effect of IFN-β treatment on improved CAR expression, and to optimize the IFN-β concentration, macrophages transfected with M6AGCap1/PsU modified mRNA were treated with 0, 3, 10, 30, or 100 ng/mL IFN-β for 4 hours and the viability, CAR percentage, and CAR MFI were evaluated on day 4 and day 7 post electroporation.
Given that macrophage phenotype is considered plastic, and immunosuppressive cytokines such as IL-10 are known to induce an M2 phenotype, the impact of IL-10 treatment on IFN-β treated or untreated HER2 CAR mRNA transfected macrophages was evaluated.
Additional studies were performed to determine if treatment with interferons could further improve CAR mRNA persistence in macrophages and if CAR macrophage functionality could be extended. Human macrophages were electroporated with 300 nM CAR mRNA comprising m6AGCap1 and PsU modifications. Cells were cultured with 20 ng/mL IFNs for 24 hours and then the cells were washed to remove cytokines. CAR expression was detected by Flow Cytometry (Attune) on day 2 after transfection. Cells were then co-cultured with a Nuc-Light labeled, HER2+ breast cancer cell line (CRL2351) at the Effector to Target ratio of 3:1. Cancer cell growth was monitored via its fluorescence on an Incucyte® live imaging microscope. CAR expression and M1 markers in macrophages were detected by Flow Cytometry (Attune) on day 7 after transfection.

[2] = tested on: HER2 CAR macrophages co-cultured with HER2+ breast cancer cells (CRL2351); test: Cytokine secretion of interferon treated HER2 CAR macrophages in co-culture (MSD); type: cell-based, human; settings: E:T 3:1, supernatant at 48 hours
Description: To evaluate whether interferon treatment of macrophages improved other anti-tumor functions, the cytokine secretion of interferon treated or untreated mRNA transfected HER2 CAR macrophages after co-culture with HER2+ breast cancer cells was evaluated. Human macrophages were electroporated with 150 nM HER2 CAR mRNA comprising m6AGCap1 and PsU modifications. HER2+ breast cancer cells (CRL2351) were co-cultured with CAR macrophages after the macrophages were transfected with the CAR mRNA at an Effector (CAR macrophage) to Target (cancer cell) ratio of 3:1. Supernatant was collected 48 hours after the cancer cells and macrophages were co-cultured and cytokine levels were measured using a Meso Scale Discovery (MSD) instrument.

[3] = tested on: HER2+ breast cancer cells (CRL2351); test: Cancer cell killing by cytokine treated HER2 CAR macrophages (Incucyte); type: cell-based
Description: as §1, §2
To evaluate the anti-tumor function of macrophages transfected with mRNA encoding a HER2 CAR with or without priming with IFN-β, untransduced (UTD) or CAR macrophages were primed with 0, 3, 10, 30, or 100 ng/mL IFN-β for 4 hours or 20 hours. These effector cells were then co-cultured with the HER2+ breast cancer cell line CRL2351-GFP at an effector to target ratio of 3:1 or 1.5:1 and anti-tumor activity was measured based on GFP expression using an Incucyte® live imaging microscope. […] To evaluate whether the improved mRNA-transfected CAR macrophage anti-tumor effect was universal to all interferons or only interferon beta, macrophages electroporated with M6AGCap1/PsU mRNA were treated with IFN-alpha, beta, or gamma and evaluated for their cancer cell killing ability.
Additional studies were performed to determine if treatment with interferons could further improve CAR mRNA persistence in macrophages and if CAR macrophage functionality could be extended. […] CAR expression was detected by Flow Cytometry (Attune) on day 2 after transfection. […] Cancer cell growth was monitored via its fluorescence on an Incucyte® live imaging microscope. CAR expression and M1 markers in macrophages were detected by Flow Cytometry (Attune) on day 7 after transfection.

[4] = 48 hours and 7 days post-treatment with IL-10

B1: IFN-β: interferon cytokine that induces an M1 phenotype (protein, UniProt P01574 22-187, looked up)
Interferon beta: MSYNLLGFLQRSSNFQCQKLLWQLNGRLEYCLKDRMNFDIPEEIKQLQQFQKEDAALTIYEMLQNIFAIFRQDSSSTGWNETIVENLLANVYHQINHLKTVLEEKLEKEDFTRGKLMSSLHLKRYYGRILHYLKAKEYSHCAWTIVRVEILRNFYFINRLTGYLRN
[1]; 0-100 ng/mL
  induction of M1 markers CD80, CD86, and HLA-DR: dose-dependent
[1]; [4]
  M1 marker CD86 after IL-10 treatment: retaining expression of the M1 marker CD86
  M2 marker CD163 after IL-10 treatment: did not express the M2 marker CD163
[1]; CD86
  persistence of M1 phenotype post treatment: at least 7 days
[1]; day 7, 20 ng/mL 24 hours
  expression of M1 markers CD80, CD86 and HLA-DR vs no interferon: increased
[1]; days 2 and 7
  M1 phenotype based on CD86 expression: strongest M1 phenotype
  M2 markers based on CD163 expression: reduction of M2 markers
[2]
  secretion of IL-6, IL-8 and TNFα from macrophages: increased secretion of the cytokines IL-6, IL-8 and TNFα
[3]; 0-100 ng/mL for 4 or 20 hours, E:T 3:1 or 1.5:1
  anti-tumor activity of primed CAR macrophages: improved ability for CAR macrophages to kill cancer cells
[3]; M6AGCap1/PsU mRNA
  cancer cell killing, comparison of interferons: best cancer cell killing
[3]; macrophages 7 days post-electroporation, 72 hours co-culture
  cancer cell killing: highest level of cancer killing
[3]; with or without treatment
  anti-tumor activity of CAR macrophages with differently modified mRNAs: improved anti-tumor activity for all CAR macrophages except those transfected with 5 moU mRNA
